Test results reported in patent US12129237B2, “Substituted diaminocarboxamide and diaminocarbonitrile pyrimidines, compositions thereof, and methods of treatment therewith” (SIGNAL PHARMACEUTICALS, LLC, priority 2011, dated 2024).

Chains of the proteins cited; added tags and fusions are not shown.
UniProt P45983, whole entry: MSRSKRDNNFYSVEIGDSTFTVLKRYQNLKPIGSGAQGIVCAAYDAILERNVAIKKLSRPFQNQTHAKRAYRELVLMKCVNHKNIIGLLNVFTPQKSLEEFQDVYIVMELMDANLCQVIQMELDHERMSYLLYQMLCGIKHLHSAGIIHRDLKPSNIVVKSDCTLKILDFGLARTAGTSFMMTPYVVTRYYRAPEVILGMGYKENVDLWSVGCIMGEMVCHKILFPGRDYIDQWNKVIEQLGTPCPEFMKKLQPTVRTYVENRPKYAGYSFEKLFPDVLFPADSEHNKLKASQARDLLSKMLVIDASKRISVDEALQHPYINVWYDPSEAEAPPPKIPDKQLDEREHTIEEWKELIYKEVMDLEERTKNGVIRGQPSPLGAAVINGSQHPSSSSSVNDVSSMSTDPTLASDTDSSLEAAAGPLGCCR

Target: JNK1 (Homo sapiens, UniProt P45983)
Test: JNK1 biochemical assays (one or more of: time resolved fluorescence, Z'-LYTE Cascade, radioactive)
Details: read-out: Act. Level; Table 2; JNK1 IC50 activity level

Compound | IC50 [nM]
NC(=O)c1cnc(Nc2cccc3c2CCCC3)nc1Nc1ccccc1 | 200 to 800
CC1(C)CCC(Nc2ncc(C(N)=O)c(N[C@@H]3CCC[C@H](O)C3)n2)c2ccccc21 (stereo partly drawn) [Example B-99, 2-(4,4-dimethyl-1,2,3,4-tetrahydronaphthalen-1-ylamino)-4-((1R,3S)-3-hydroxycyclohexylamino)pyrimidine-5-carboxamide] | < 200
